miR-21 reporter: miR-21 reporter, rising signal | HeLa miR-21 FLuc reporter, luciferase, 48 h | Potency, µM (doses to about 38.3 µM), inactives show at the top dose reporter change, positive = more light | 340,000 tested, under 10 active | AID 2288; active = well fitted rising curve with a large enough effect; inconclusive = small, poorly fitted or top-dose-only effect; inactive = no such curve, though single readings can be large or run the other way;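 note: % of control where 0% means no effect; miR-21 action dims this reporter so a rising signal means less miR-21 action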
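HeLa cells stably expressing CMV-driven firefly luciferase with a downstream miR-21 binding sequence, endogenously expressing miR-21, were treated with titrations (up to about 40uM final) for 48 hours at 37 degree Celsius. Luciferase luminescence was read after lysis.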
PINK1 modulator: PINK1 expression modulation; PINK1 immunofluorescence, high-content cytometry, 24 h; hit rate 0.2% among 410,000; Potency, µM (titrated, usually from 76.6 µM), without a hit: top-dose activation (PINK1 increase), usual class: activators; AID 624263; active = well fitted activation curve with a large enough effect; inconclusive = small, poorly fitted or top-dose-only effect; cell line not stated here; also: potency is read from the fitted curve at half-maximal effect; % of control where 0% means no effect; nearly all actives have a fitted effect of over 65% in size
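Cells are seeded, rested 12 hours, then given compound at five concentrations or DMSO for 24 hours. After fixation, blocking and antibody staining, PINK1 amount and mitochondrial localization are scored; CCCP serves as control.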
12-LOX inh: blocks human arachidonate 12S-lipoxygenase; hit rate 1.1% among 580,000; purified 12hLO, xylenol orange hydroperoxide absorbance; P18054; Potency, µM (series often up to 108 µM), for the others: top-dose activity change, negative = inhibition, actives largely listed as inhibitors; AID 1671190; also: potency is read from the fitted curve at half-maximal effect; % is scaled to controls: 0 for no effect and ±100 for the full control effect
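Purified human 12hLO at 150 nM in 25 mM Hepes, 0.01% Triton X-100, pH 7.0, preincubated 15 min at room temperature with compound. Reaction started with 40 uM arachidonic acid, 30 min at room temperature. Hydroperoxide measured by Fe-xylenol orange, 573/405 nm absorbance ratio.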
Giardia kill: kills Giardia lamblia; Giardia lamblia trophozoite viability; activity change, % at 7.66 µM, hits read low; AID 540267; hit rate 0.15% among 340,000; in the data active = activity change below about -80%; inconclusive = between about -30% and that limit;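 also: parasites exposed to compound for two days anaerobically before the ATP read; % is scaled to controls: 0 for no effect and ±100 for the full control effect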
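Anaerobic 48 hrs incubation at 37 deg C of 100 trophozoites/well with test compounds; ATPLite 1-Step luminescence, 15-30 min RT, reports cellular ATP as viability.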
ERG-DNA inh: ERG Ets/DNA interaction inhibition | P11308 | fluorescence polarization, His-ERG Ets domain / labelled DNA | Potency, µM (titrated, usually from 76.9 µM), inactives show at the top dose FP activity, negative = inhibition, most hits filed as inhibitors | hit rate 0.028% among 370,000; active = well fitted inhibition curve with a large enough effect in the polarisation, with a control signal flat; inconclusive = small, poorly fitted or top-dose-only effect, or effect the other way, or a change in a side signal; inactive = no such curve, though single readings can be large or run the other way; the % refers to the polarisation;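 also: polarization taken with two DNA probes labelled with fluorescein and Texas red; potency is read from the fitted curve at half-maximal effect; % of control where 0% means no effect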
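His-tagged ERG Ets domain (1 uM in the protein solution; 300mM KCl, 50mM Tris-HCl, 1mM EDTA, 1mM DTT, pH 7.5) received compound, then a probe mix of 5 nM fluorescein-DNA and 100nM Texas-615-DNA. Fluorescence polarization was read for both dyes.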
PTHR1 agonist: activates the human parathyroid hormone receptor PTHR1; Q03431; AID 743266; Potency, µM (highest dose often 115 µM), without a hit: at the top dose activation, actives largely listed as activators; HEK293 GP2 PTHR1 cells, GloSensor cAMP luminescence, 1 h; hit rate 0.075% among 410,000; also: potency is read from the fitted curve at half-maximal effect; nearly all actives have a fitted effect of over 55% in size
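HEK-293-derived GP2 cells expressing PTHR1 and a GloSensor cAMP reporter, 3,000/well, plated overnight, given luciferin plus IBMX (each 0.5 mM as added) for 1 h at 37 °C, then compound for 1 h at 37 °C. Luminescence was read after 15 min at room temperature.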
Active calls of the source: *; i = inactive; ? = inconclusive; nt = no result given; ! = repeats disagree; [ ] = remark or other dose. The list is not random: actives were taken first. Their share in the collection is about 1.3%. Unless noted, calls follow the shape of the dose curve; as a rule, active = well fitted curve in the direction sought with a large enough effect; inconclusive = small, poorly fitted or top-dose-only effect, or another doubt; inactive = no such curve, though single readings can be large; an effect the other way counts as inactive or inconclusive.

Labels used below: A = miR-21 reporter; B = PINK1 modulator; C = 12-LOX inh; D = Giardia kill; E = ERG-DNA inh; F = PTHR1 agonist
> C#C[C@H]1CN2CC[C@H]1C[C@@H]2CNS(=O)(=O)CCC
  A: nt | B: nt | C: 8%[176 µM] | D: nt | E: nt | F: nt

> Cc1nc(-c2ccccc2Br)cc([C@H]2CN3CC[C@H]2C[C@@H]3CNC(=O)Nc2ccccc2)n1
  A: nt | B: nt | C: 11µM* | D: nt | E: nt | F: nt

> COc1ccc(-c2cc([C@H]3CN4CC[C@H]3C[C@@H]4CNC(=O)NC(C)C)nc(C)n2)cc1OC
  A: nt | B: nt | C: 32µM* | D: nt | E: nt | F: nt

> COc1ccc(-c2cc([C@H]3CN4CC[C@H]3C[C@@H]4CNC(=O)C3CCC3)nc(C)n2)cc1OC
  A: nt | B: nt | C: 70% | D: nt | E: nt | F: nt

> O=C1NC(=O)C(=Cc2ccc(-c3cc(Cl)ccc3[N+](=O)[O-])o2)C(=O)N1
  A: -1% | B: -1% | C: 6.3µM* | D: 20 | E: -7% | F: -66%

> O=C1NC(=O)C(=Cc2ccc(-c3ccccc3[N+](=O)[O-])o2)C(=O)N1
  A: 5% | B: -1% | C: ? | D: -5 | E: -18% | F: i

> CCC(CO)(C(=O)OC1C[N+]2(C)CCC1CC2)c1ccccc1 (stereo not drawn)
  A: 0% | B: 0% | C: 45µM* | D: 10 | E: 3% | F: i

> COc1ccc(CNC[C@H]2C[C@@H]3CCN2C[C@@H]3c2cc(-c3ccc4ccccc4c3)nn2C)cc1
  A: nt | B: nt | C: 127% | D: nt | E: nt | F: nt

> COCCNC(=O)c1ccc(N2CC3CC(C2)c2cccc(=O)n2C3)c([N+](=O)[O-])c1 (stereo not drawn)
  A: -3% | B: 0% | C: 68% | D: 21 | E: 2% | F: i

> N#CC(C#N)=Cc1ccc(O)c(O)c1
  A: nt | B: 2% | C: 25µM*! | D: 2 | E: -2% | F: -41%

> COC(=O)C1=C(c2ccc(OCc3ccccc3)cc2)C[C@@H]2CC[C@H]1N2C(=O)NCc1ccccc1C(F)(F)F
  A: nt | B: 1% | C: ? | D: nt | E: nt | F: -2%

> Cc1[nH]n(-c2ccccc2)c(=O)c1C(c1ccc([N+](=O)[O-])cc1)c1c(C)[nH]n(-c2ccccc2)c1=O
  A: 1% | B: 40µM* | C: nt | D: -9 | E: -12% | F: -38%

> O=C(O)CF
  A: nt | B: -1% | C: -3% | D: nt | E: nt | F: nt

> Cc1[nH]c2ccc(Cl)cc2c1C1=CCNCC1
  A: nt | B: nt | C: 154% | D: nt | E: nt | F: nt

> Cc1ccc(Sc2ccc(C=C3C(=O)N(C)C(=O)N(C)C3=O)o2)cc1
  A: 0% | B: 2% | C: 35µM* | D: 10 | E: 42% | F: i

> CN1C(=O)C(=Cc2ccc(-c3cccc(Cl)c3)o2)C(=O)N(C)C1=O
  A: -3% | B: nt | C: nt | D: nt | E: nt | F: nt

> Cc1ccc(OP2(=O)Nc3cc(C)c(C)cc3S2)cc1 (stereo not drawn)
  A: nt | B: 2% | C: 20µM* | D: 7 | E: 8% | F: -42%

> CNC(=O)Oc1ccc(-c2cn3cc(Cl)ccc3n2)cc1
  A: ? | B: -2% | C: -12% | D: -86* | E: 4% | F: -16%

> CC1=CC(=C2C(=O)NC(=O)NC2=O)C=C(C(F)(F)F)N1C(C)C
  A: -15% | B: -3% | C: -5% | D: -1 | E: -1% | F: 28µM*

> CN1/C(=C\C=C2C(=O)NC(=S)NC2=O)C(C)(C)c2ccccc21
  A: 0% | B: 35µM* | C: 3% | D: 10 | E: 14% | F: -26%

> CC1(C)OC(c2ccccc2)=C/C(=C/C=C2C(=O)NC(=S)NC2=O)O1
  A: 3% | B: ? | C: -25% | D: 0 | E: 130% | F: -23%

> Cc1cnc(C2CCC2)n1C1CCNCC1
  A: nt | B: nt | C: 65% | D: nt | E: nt | F: nt

> COc1ccc(-c2ccc3c(c2)CN(c2cccc(Cl)c2)Cc2cnnn2-3)cc1
  A: nt | B: 3% | C: 18µM* | D: nt | E: nt | F: -22%

> Clc1cccc(N2Cc3cc(-c4ccccc4)ccc3-n3nncc3C2)c1
  A: nt | B: 2% | C: -55% | D: nt | E: nt | F: -18%

> O=c1[nH]c(=O)n(-c2ccc(F)cc2)c(O)c1C=Nc1ccccc1N1CCCC1
  A: -4% | B: 35µM* | C: 0% | D: 9 | E: -6% | F: -2%

Full records from above.
Entry for Cc1ccc(Sc2ccc(C=C3C(=O)N(C)C(=O)N(C)C3=O)o2)cc1 → miR-21 reporter = 0%; PINK1 modulator = 2%; 12-LOX inh = 35µM*; Giardia kill = 10; ERG-DNA inh = 42%; PTHR1 agonist = i
Entry for Cc1cnc(C2CCC2)n1C1CCNCC1 → miR-21 reporter = nt; PINK1 modulator = nt; 12-LOX inh = 65%; Giardia kill = nt; ERG-DNA inh = nt; PTHR1 agonist = nt
Entry for COc1ccc(-c2cc([C@H]3CN4CC[C@H]3C[C@@H]4CNC(=O)NC(C)C)nc(C)n2)cc1OC → miR-21 reporter = nt; PINK1 modulator = nt; 12-LOX inh = 32µM*; Giardia kill = nt; ERG-DNA inh = nt; PTHR1 agonist = nt

(more compounds)
Under each structure: miR-21 reporter, PINK1 modulator, 12-LOX inh, Giardia kill, ERG-DNA inh, PTHR1 agonist
> Cc1ccccc1-c1ccc2n(c1=O)C[C@H]1C[C@@H]2CN(C(=O)c2ccc(F)cc2)C1
  nt, nt, -15%[176 µM], nt, nt, nt
> C[C@]12CC[C@@H]3c4ccc(OC(=O)N(CCCl)CCCl)cc4CC[C@H]3[C@@H]1CC[C@@H]2OP(=O)(O)O
  nt, nt, 22µM*, nt, nt, nt
> CC12CCC3c4ccc(OP(=O)(N5CC5)N5CC5)cc4CCC3C1CCC2=O (stereo not drawn)
  nt, 0%, 24%, -13, 6%, -1%
> c1ccc(CNCCc2c[nH]c3ccccc23)cc1
  -2%, 3%, ?, -3, 5%, i
> CCc1ccc(CNCCc2c[nH]c3ccccc23)cc1
  -3%, ?, 0.89µM*!, -10, -14%, -19%
> O=[N+]([O-])c1ccccc1CNCCc1c[nH]c2ccccc12
  -9%, 3%, 0.56µM*, -10, 0%, 12%
> COc1cc2c(cc1Oc1cccc(N(C)C)c1)NC(=O)C21CCN(Cc2ccccc2)CC1
  nt, nt, 89µM*, nt, nt, nt
> CCN(CCNc1ccc([N+](=O)[O-])c2cccnc12)S(=O)(=O)c1ccc(Cl)cc1
  -3%, -2%, -23%, -6, -4%, i
> CCN(CCNc1ccc([N+](=O)[O-])c2cccnc12)S(=O)(=O)c1ccccc1
  -6%, 40µM*, 0%, -12, -6%, -21%
> CC1=NOC2(CCN(Cc3ccc(F)cc3)C2)C1 (stereo not drawn)
  nt, nt, 67%[176 µM], nt, nt, nt
> COc1ccc(OC)c(N=Cc2c(O)n(Cc3ccccc3)c(=S)[nH]c2=O)c1
  3%, 35µM*, -2%, -1, 2%, i
> COc1ccc(N=Cc2c(O)n(Cc3ccccc3)c(=S)[nH]c2=O)c(OC)c1
  0%, 1%, -4%, -14, -1%, -3%
> CCC1C2Cn3c(nc4ccccc43)C1N(C)O2 (stereo not drawn)
  -3%, 0%, ?, -11, 0%, i
> O=C1NC(=S)NC(=O)C1=Cc1ccc(Br)s1
  5%, -1%, 16µM*, -9, 16%, -48%
> O=[N+]([O-])c1cc([As](=O)(O)c2ccc(O)c([N+](=O)[O-])c2)ccc1O
  -1%, 0%, -20%, -83*, 1%, i
> O=C(O)[C@@H]1Cc2[nH]cnc2C(c2cccnc2)N1 (stereo partly drawn)
  nt, nt, 89%, nt, nt, nt
> O=[N+]([O-])c1ccc(N2CCCCC2)c2ncccc12
  -20%, 0%, -7%, -22, -3%, -22%
> O=[N+]([O-])c1ccc(N2CCCCCC2)c2nonc12
  -39%, 40µM*, ?, ?, ?, i
> Cc1c(NS(=O)(=O)c2ccccc2)ccc([N+](=O)[O-])c1Cl
  nt, 16µM*, -12%, 6, 1%, -29%
